Assay results from patent US20150147342A1 (published 2015).

Chains of the proteins cited; added tags and fusions are not shown. Chains listed by the source or under a name are the forms on record and can include a tag or linker.
Dimeric fibrinogen-like domain of mouse (Mus musculus) Ang-2 conjugated to human IgG1, one chain, as listed by the source limits assumed: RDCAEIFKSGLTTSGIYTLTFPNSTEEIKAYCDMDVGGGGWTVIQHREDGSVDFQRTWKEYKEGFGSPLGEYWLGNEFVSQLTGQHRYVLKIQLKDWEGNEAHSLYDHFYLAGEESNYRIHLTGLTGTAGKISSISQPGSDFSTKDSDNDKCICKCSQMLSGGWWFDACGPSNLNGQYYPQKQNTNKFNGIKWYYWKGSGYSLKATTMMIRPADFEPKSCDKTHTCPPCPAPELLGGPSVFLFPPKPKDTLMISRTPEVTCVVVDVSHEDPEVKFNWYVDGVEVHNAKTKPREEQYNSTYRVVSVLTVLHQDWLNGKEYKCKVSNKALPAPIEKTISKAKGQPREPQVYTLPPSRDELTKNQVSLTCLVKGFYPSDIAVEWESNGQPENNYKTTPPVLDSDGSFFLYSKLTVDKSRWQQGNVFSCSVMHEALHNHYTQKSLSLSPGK

Target: T1, Dimeric fibrinogen-like domain of mouse (Mus musculus) Ang-2 conjugated to human IgG1 (mouse (Mus musculus))
T1 construct: also called Dimeric Mouse Ang-2FD; Mouse Ang-2FD-hFc
Assay: SPR, hIgG1 antibody captured, room temp

- Kd: 0.158 nM
B1: H1H744N (antibody, V domains shown)
VH: QVQLVQSGVEVKKPGASVKVSCKTSGYTFSNNGFSWVRQAPGQGLEWLGWISGYNGNTNYAQKFQGRVTMTTDTSTSTAYMELRTLRSDDTAVYYCARDQDYSNFHWLDPWGQGTLVTVAS
VL: DIQMTQSPSSVSASVGDRVIITCRASQGLSSWLAWYQQKPGTAPKLLIHSASSLQTGVPSRFSGSGSGTEFALTINSLQPEDFGTYYCQQANSFPLTFGGGTRVEIK
